Measured values: ChEMBL document CHEMBL5149989, “Interplay among Conformation, Intramolecular Hydrogen Bonds, and Chameleonicity in the Membrane Permeability and Cyclophilin A Binding of Macrocyclic Peptide Cyclosporin O Derivatives” (J Med Chem, 2021)

Assay: Efflux ratio of permeability from basolateral to apical side over apical to basolateral side in human Caco2 cells measured at 0.5 to 2 hrs by LC-MS analysis
Type: ADME, cell-based
Conditions: caco-2, time 0.5-2 hrs

Ratio: 10
SMILES: CC(C)NCC(O)COc1ccc(CC(N)=O)cc1 (stereo unspecified) [ATENOLOL]
